This is an account of results in ChEMBL document CHEMBL3244159, “Ultraviolet photoelectron spectroscopy of cyclic amidines. 1. Electronic structure of some alpha-adrenergic benzylimidazolines” (J Med Chem, 1979).

The assay concerns the target Adrenergic receptor alpha. The assay can be described thus: Displacement of [3H]clonidine from alpha-adrenergic receptor in rat brain. The assay is classed as tissue-based. (In general: Loss of bound radioactivity is the signal in a displacement assay; it reports binding, not function.)

As a reminder, the Ki is a dissociation constant, usually derived from enzyme kinetics or from competition with a known ligand. As for `c1ccc2c(CC3=NCCN3)cccc2c1` [NAPHAZOLINE], the Ki was 5.7 nM.
